ChEMBL document CHEMBL6074668 (J Med Chem, 2024)

By UniProt entry, the sequences of proteins in these tests, tags left out. Where a name states a change or a piece, a line headed by the entry shows the natural chain unless it says otherwise.
UniProt P41143, whole entry, looked up: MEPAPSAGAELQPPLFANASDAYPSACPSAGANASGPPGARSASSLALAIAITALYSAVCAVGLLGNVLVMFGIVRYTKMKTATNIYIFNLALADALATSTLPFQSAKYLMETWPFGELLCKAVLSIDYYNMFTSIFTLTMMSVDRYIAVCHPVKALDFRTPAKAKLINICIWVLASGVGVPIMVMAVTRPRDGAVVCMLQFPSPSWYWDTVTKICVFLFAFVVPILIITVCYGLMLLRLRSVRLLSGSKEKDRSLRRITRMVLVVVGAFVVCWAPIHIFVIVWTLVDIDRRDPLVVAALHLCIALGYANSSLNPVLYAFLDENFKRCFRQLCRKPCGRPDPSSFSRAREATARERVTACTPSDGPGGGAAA
UniProt P28223, whole entry, looked up: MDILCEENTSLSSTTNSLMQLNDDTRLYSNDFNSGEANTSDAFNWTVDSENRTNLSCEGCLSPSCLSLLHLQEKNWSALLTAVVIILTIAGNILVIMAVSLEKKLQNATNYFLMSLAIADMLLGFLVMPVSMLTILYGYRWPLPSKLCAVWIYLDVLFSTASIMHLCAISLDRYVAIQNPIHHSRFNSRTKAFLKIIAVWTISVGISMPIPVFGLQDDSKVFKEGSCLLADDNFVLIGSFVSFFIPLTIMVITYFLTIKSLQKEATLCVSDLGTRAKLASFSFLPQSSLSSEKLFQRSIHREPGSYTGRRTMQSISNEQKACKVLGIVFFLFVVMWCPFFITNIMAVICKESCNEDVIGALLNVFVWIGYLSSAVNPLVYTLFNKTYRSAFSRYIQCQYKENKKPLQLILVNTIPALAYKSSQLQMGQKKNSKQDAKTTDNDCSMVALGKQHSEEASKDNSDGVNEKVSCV
UniProt P41145: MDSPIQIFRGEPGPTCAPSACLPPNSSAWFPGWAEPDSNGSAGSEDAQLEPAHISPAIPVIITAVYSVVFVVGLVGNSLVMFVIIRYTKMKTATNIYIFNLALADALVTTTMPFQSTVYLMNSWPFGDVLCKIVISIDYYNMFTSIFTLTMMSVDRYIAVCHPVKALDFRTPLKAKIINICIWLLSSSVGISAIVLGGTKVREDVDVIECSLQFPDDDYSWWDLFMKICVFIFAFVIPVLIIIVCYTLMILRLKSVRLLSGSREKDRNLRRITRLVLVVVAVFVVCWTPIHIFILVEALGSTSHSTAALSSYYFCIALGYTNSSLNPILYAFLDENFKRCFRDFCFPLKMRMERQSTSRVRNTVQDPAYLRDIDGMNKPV
UniProt P35372, whole entry, looked up: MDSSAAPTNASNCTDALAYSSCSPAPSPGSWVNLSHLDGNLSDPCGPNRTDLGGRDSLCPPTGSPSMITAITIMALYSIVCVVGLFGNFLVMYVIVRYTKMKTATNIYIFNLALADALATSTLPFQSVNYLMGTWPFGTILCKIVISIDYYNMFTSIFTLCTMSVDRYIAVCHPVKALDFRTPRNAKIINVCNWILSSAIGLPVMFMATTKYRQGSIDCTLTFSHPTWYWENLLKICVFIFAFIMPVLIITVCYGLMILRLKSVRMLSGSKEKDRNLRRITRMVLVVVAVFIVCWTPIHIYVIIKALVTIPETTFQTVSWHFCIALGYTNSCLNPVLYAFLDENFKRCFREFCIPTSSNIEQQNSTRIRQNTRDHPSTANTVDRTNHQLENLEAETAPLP

What was measured:
[1] = target: Delta-type opioid receptor (Homo sapiens) (UniProt P41143); test: Agonist activity at human delta opioid receptor expressed in CHO-K1 cells assessed as inhibition of forskolin-stimulated cAMP accumulation at <1 uM by HitHunter assay based luminescence analysis; format: functional, cell-based
[2] = target: 5-hydroxytryptamine receptor 2A (Homo sapiens, UniProt P28223); test: Binding affinity to 5HT2A receptor (unknown origin) at 10 uM by radioligand displacement assay
[3] = target: Kappa-type opioid receptor (Homo sapiens, UniProt P41145); test: Agonist activity at human kappa opioid receptor expressed in CHO-K1 cells assessed as inhibition of forskolin-stimulated cAMP accumulation by HitHunter assay based luminescence analysis relative to control; format: functional, cell-based; details: filed as agonist
Mu-type opioid receptor = Mu-type opioid receptor (Homo sapiens, UniProt P35372); test: Agonist activity at human mu opioid receptor expressed in CHO-K1 cells assessed as inhibition of forskolin-stimulated cAMP accumulation at 10 uM by HitHunter assay based luminescence analysis; format: functional, cell-based

SMILES: C/C=C1/CN2CC[C@]34C(=C(C(=O)OC)[C@H]1C[C@H]23)Nc1ccc(Br)cc14
- Activity [1]: inactive
- Activity [2]: < 50%

SMILES: CN(C(=O)Cc1ccc(Cl)c(Cl)c1)[C@H]1CCCC[C@@H]1N1CCCC1
- Emax [3]: 100%
- Activity (Mu-type opioid receptor): inactive

Active and inactive are the calls of the source. The rule behind the calls is not given here.
